{"source": "patent US5283247A", "about": "“Anticonvulsant substituted quinazolones” (Research Corporation Technologies, Inc., priority 1992, dated 1994)", "test": "behavioral observations / gross CNS effects in mice", "type": "in vivo, male mice (Swiss-Webster)", "conditions": "100 mg/kg ip, after injection of test compounds", "description": "The mice were divided in groups of 10, keeping the group weights equal as far as possible. The quinazolones shown in Table 2 as well as methaqualone were injected ip (100 mg/kg) in a 5% aqueous suspension of gum acacia to one group of 10 animals. One hour after the administration of quinazolones, the mice were injected with pentylenetetrazol (90 mg/kg) sc under the loose skin of the back. […] The mice were then observed for the following 60 minutes for the occurrence of seizures. One episode of clonic spasm which persisted for a minimum period of 5 seconds was considered a threshold convulsion. Transient intermittent jerks or tremulousness were not taken into account. Animals devoid of even a threshold convulsion during the period of 60 minutes were considered protected. […] Mortality was recorded 24 hours after the pentylenetetrazol injection. After the injection of test compounds, behavioral observations were also made. […] 2 and compound no.", "data": [{"smiles": "Cc1ccccc1-n1c(C)nc2ccccc2c1=O", "note": "[Compound 1, 2-methyl-3-o-tolyl-4-quinazolone]", "values": [{"measurement": "Behavioral Observations", "value": "deep hynosis"}]}]}
